Source: PubChem
Rows were chosen to be rich in hits. Some 1% of all compounds tested hit in one or more screens of this group.
KinaseGlo FLuc: Kinase-Glo luciferase inhibition (counter-screen); Q27757; Kinase-Glo luciferase, ATP luminescence, 8 min; Potency, µM (titrated, usually from 38.3 µM), usual class: inhibitors; 200,000 compounds, 0.28% hits; AID 1379; further: nearly all actives have a fitted effect of over 60% in size
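Compounds were added to a substrate mix at pH 7.2 (50 mM imidazole, 10 uM ATP, within the enzyme's linear range), followed by Kinase-Glo detection reagent; luminescence was measured after 8 minutes at ambient temperature.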
RXFP1 ag: RXFP1 (human) receptor agonism. Q9HBX9. HEK293T-RXFP1 cAMP TR-FRET, 30 min; response scale: percent of porcine relaxin response, buffer zero. Potency, µM (series often up to 57.5 µM), usual class: activators. 370,000 compounds, 0.3% hits. AID 2676; further: nearly all actives have a fitted effect of over 60% in size
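HEK293 cells stably expressing RXFP1, treated 30 min at 37C with compounds plus PDE4 inhibitor Ro 20174; cAMP measured by HTRF TR-FRET. Normalized to buffer and 29 nM porcine relaxin; EC50 by Hill fit.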
miR-21 FLuc: miR-21 reporter, rising signal | HeLa miR-21 FLuc reporter, luciferase, 48 h | Potency, µM (highest dose often 38.3 µM) | 340,000 tested, under 10 active | AID 2288; active = well fitted rising curve with a large enough effect; inconclusive = small, poorly fitted or top-dose-only effect; inactive = no such curve, though single readings can be large or run the other way;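 further: miR-21 action dims this reporter so a rising signal means less miR-21 action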
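HeLa cells stably expressing CMV-driven firefly luciferase with a downstream miR-21 binding sequence, endogenously expressing miR-21, were treated with titrations (up to about 40uM final) for 48 hours at 37 degree Celsius. Luciferase luminescence was read after lysis.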
gsp agonist: activates gsp, the McCune-Albright syndrome mutation; gsp mutant cells, cAMP HTRF, 30 min; Potency, µM (series often up to 76.9 µM), most hits filed as activators; 340,000 compounds, 0.13% hits; AID 624287; active means well fitted activation curve with a large enough effect; inconclusive means small, poorly fitted or top-dose-only effect, or another doubt; inactive means no such curve, though single readings can be large or run the other way; cell line not stated here;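 further: phosphodiesterase inhibitor Ro 20-1724 added with compounds to block cAMP breakdown; nearly all actives have a fitted effect of over 60% in size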
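Cells stably selected in G418 were plated at 2000/well, grown 16-24 hr, then given compounds in DMSO with the PDE inhibitor […] (300 uM solution added) for 30 min at 37C; cAMP was read by HTRF.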
RXFP1 antagonist: RXFP1 (human) relaxin receptor antagonism. Q9HBX9. HEK293-RXFP1, relaxin-stimulated cAMP HTRF, 30 min; hits give low values. activity change, negative = inhibition, % at 57.5 µM. 350,000 compounds, 0.59% hits. AID 1259400;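 active means activity change of -60% or lower, but not beyond a set lower limit; inconclusive means change between -60% and -40%, or beyond the set limit; inactive means change above -40%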
gsp antag: antagonizes gsp, the McCune-Albright syndrome mutation | gsp-mutant cells, cAMP HTRF, 30 min | Potency, µM (titrated, usually from 76.9 µM), most hits filed as inhibitors | 340,000 compounds, 0.4% hits | AID 624288; calls by dose curve; cell line not stated here;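 further: intracellular cAMP measured with PDE inhibitor Ro 20-1724 present during compound exposure; nearly all actives have a fitted effect of over 65% in size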
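G418-selected cells were plated in DMEM/10% FBS for 16-24 h at 37C, then treated with compounds plus the PDE inhibitor […] (300 uM solution added) for 30 min at 37C. Intracellular cAMP was measured by HTRF after 30 min lysis at room temperature.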
Numbers stand for hits; – = inactive; ? = inconclusive; · = not tested or not shown; [ ] = another dose, or the depositor's remark. Unless noted, the call rests on the fitted dose curve; in most records, active means well fitted curve in the direction sought with a large enough effect; inconclusive means small, poorly fitted or top-dose-only effect, or another doubt; inactive means no such curve, though single readings can be large; an effect the other way counts as inactive or inconclusive.

SMILES | KinaseGlo FLuc | RXFP1 ag | miR-21 FLuc | gsp agonist | RXFP1 antagonist | gsp antag
CCOC(=O)CSc1nc2sc3c(c2c(=O)n1Cc1ccccc1)CC(C)CC3 (stereo not drawn) | · | – | – | · | – | ·
Cc1cccc(Cn2cc(C(=O)c3ccccc3)c(=O)c3cc4c(cc32)OCO4)c1 | · | – | – | · | – | ·
COc1ccc(C(=O)c2cn(Cc3cccc(C)c3)c3cc4c(cc3c2=O)OCCO4)cc1OC | · | – | – | · | -81 | ·
COc1cc(C(=O)Nc2nnc(S(=O)(=O)N(C)c3ccccc3)s2)cc(OC)c1OC | · | – | – | · | -64 | ·
CN(c1ccccc1)S(=O)(=O)c1nnc(NC(=O)c2cccs2)s1 | · | – | – | · | – | ·
CC(C)(C)c1ccc(-c2nc(SCC(=O)Nc3ccccc3F)n3[nH]c(=O)cc3n2)cc1 | · | – | – | · | -64 | ·
CC(=O)Nc1ccc(OC(=O)c2ccccc2OC(C)=O)cc1 | · | · | · | · | – | ·
CCc1nnc(NS(=O)(=O)c2ccc(N=Cc3c(C)[nH]n(-c4ccc(C)c(C)c4)c3=O)cc2)s1 | 2µM | – | – | –[15.4 µM] | – | ?
Oc1ccc(COC2CCCC2)c2cccnc12 | · | – | · | · | · | ·
Cn1ncc(C(=O)N2CCN(c3ccc(F)cc3)CC2)c1C1CCN(C(=O)OC(C)(C)C)CC1 | · | – | – | · | – | ·
CN(C)CCCNc1cc(C(C)(C)C)nc2c(-c3ccccc3)cnn12 | · | – | – | ? | -61 | –
CCc1ccc(CN2CCCC(C(=O)Nc3ccccc3-c3ccc(OC)cc3)C2)o1 (stereo not drawn) | · | – | – | – | -77 | –
O=C(c1ccc2c(=O)n3c(nc2c1)CCCCC3)N1CCCCC1 | · | – | – | – | -108 | –
CCCCCc1ccc(C(=O)CCCC)c(=S)[nH]1 | – | – | – | – | -64 | –
Cc1cc(NC(=O)C(C)SCC(=O)Nc2cc(C(F)(F)F)ccc2N2CCOCC2)no1 (stereo not drawn) | · | – | · | –[15.4 µM] | -72 | –
Cc1ccc(S(=O)(=O)/N=C(/Nc2ccc(F)cc2F)c2ccccc2)cc1 | · | – | – | – | -65 | –
CCN(Cc1ccccc1)C(=O)Cn1c(=O)n(-c2ccc(C)c(C)c2)c(=O)c2c(C)c(C)sc21 | · | – | – | · | – | ·
Cc1ccc(N(Cc2cccs2)C(=O)c2ccccc2)cc1 | · | – | – | · | · | ·
Cc1ccc(N(Cc2cccs2)C(=O)C(C)Oc2ccc(Cl)c(C)c2)cc1 (stereo not drawn) | · | – | – | · | -100 | ·
COc1ccc(N(Cc2cccs2)C(=O)c2ccc(C(C)(C)C)cc2)cc1 | · | – | – | · | -73 | ·
Cc1ccc(N(Cc2cccs2)C(=O)c2ccc(Br)o2)cc1 | · | – | – | · | -85 | ·
Nc1cc(C(F)(F)F)ccc1S | · | · | · | · | – | ·
CCOc1ccc(NC(=O)CC(C)O)cc1 (stereo not drawn) | · | · | · | · | – | ·
COc1ccc(N(CC(=O)NCCc2ccc(C)cc2)S(=O)(=O)c2c(C)nn(C)c2C)cc1 | · | – | – | · | · | ·
CCN(CC(=O)Nc1ccc(OC)cc1)C(=O)c1oc2c(Cl)cccc2c1C | · | – | · | –[15.4 µM] | -100 | –
SMILES | KinaseGlo FLuc | RXFP1 ag | miR-21 FLuc | gsp agonist | RXFP1 antagonist | gsp antag
COc1ccccc1NC(=O)N1CCCC(CNC(=O)c2ccccc2Cl)C1 (stereo not drawn) | · | – | – | – | – | 45µM
CCN(C(=O)COC(=O)c1cc(-c2ccccc2)nc2ccc(Br)cc12)C1CCS(=O)(=O)C1 (stereo not drawn) | – | 25µM | – | –[15.4 µM] | – | ?
O=C(Cc1ccc(Cl)cc1)Nc1ccccc1N1CCN(C(=O)c2ccccc2)CC1 | · | – | – | – | – | 28µM
Cn1c(=O)c2c(ncn2CCC(=O)N/N=C/c2cccnc2)n(C)c1=O | · | 16µM | – | –[15.4 µM] | – | –
Cn1c(=O)c2c(ncn2CCC(=O)N/N=C/c2ccccc2)n(C)c1=O | · | ? | – | –[15.4 µM] | – | –
CN(c1cccc(NC(=O)c2ccc(Cl)c(S(=O)(=O)Nc3ccccc3)c2)c1)S(C)(=O)=O | – | – | – | – | – | 8.9µM
Cc1ccc(S(=O)(=O)c2nc(S(=O)(=O)c3ccc(C)cc3)c(NCCCOC(C)C)s2)cc1 | · | – | – | · | – | ·
CCOC(=O)C1(Cc2cccc(OC)c2)CCN(Cc2cccc(OC)c2OC)CC1 | · | – | – | –[15.4 µM] | – | –
CCOC(=O)C1(Cc2cccc(OC)c2)CCN(Cc2cccc3c2OCO3)CC1 | – | – | – | –[15.4 µM] | -95 | –
CCN(CC)c1ccc(N=Cc2ccc([N+](=O)[O-])o2)cc1 | – | – | – | – | -67 | ?
CCN(CC)c1ccc(N=Cc2ccccc2[N+](=O)[O-])cc1 | – | – | – | –[15.4 µM] | -68 | ?
COc1cc(OC)c(NC(=O)N2CCSc3ccccc32)cc1Cl | · | – | – | · | – | ·
CC1(C)O[C@@H]2C[C@H]3[C@@H]4CCC5=CC(=O)CC[C@]5(C)[C@@]4(F)[C@@H](O)C[C@]3(C)[C@]2(C(=O)CCl)O1 | · | – | · | · | -73 | –
CC1(C)O[C@H]2C[C@@H]3[C@H]4CCC5=CC(=O)CC[C@@]5(C)[C@]4(F)[C@@H](O)C[C@@]3(C)[C@@]2(C(=O)CCl)O1 | – | · | · | · | · | ·
CC(OC(=O)c1ccc2c(c1)OCCO2)C(=O)NC1CCCCC1C (stereo not drawn) | · | – | · | –[15.4 µM] | -72 | –
CCCOc1ccc(C2C(=O)N(C3CCCCCC3)CC(=O)N2Cc2ccccc2OC)cc1OC (stereo not drawn) | · | – | – | · | – | ·
Cc1ccc(NC(=O)NNC(=O)c2cc3ccccc3cc2O)c(C)c1 | · | – | – | – | – | –
Cc1cccc(NC(=O)NNC(=O)c2cc3ccccc3cc2O)c1C | · | – | – | –[15.4 µM] | -66 | –
COc1cccc(N2CCN(c3ncc4c(n3)CCN(Cc3ccc(Br)cc3)C4)CC2)c1 | · | – | – | · | – | ·
Cc1ccc(O)c(-c2n[nH]c3c2C(c2ccccc2F)N(Cc2ccco2)C3=O)c1 (stereo not drawn) | · | – | – | · | -69 | ·
CCOc1cccc(C2c3c(-c4cc(C)ccc4O)n[nH]c3C(=O)N2Cc2ccco2)c1 (stereo not drawn) | · | – | – | · | -76 | ·
O=C1c2[nH]nc(-c3ccccc3O)c2C(c2ccccc2F)N1Cc1ccco1 (stereo not drawn) | – | – | – | ? | – | –
COc1ccc(S(=O)(=O)NCCc2sc(-c3cccnc3)nc2C)cc1 | · | – | – | · | · | ·
NC(=O)CCCCC1CCSS1 (stereo not drawn) | · | · | · | · | -101 | ·
CCCCCCCCCCCCCCCC(N)=O | – | · | · | · | · | ·
COC(=O)C[C@@H]1C[C@H]2c3cc(NC(=O)C4CCC4)ccc3O[C@H]2[C@@H](CO)O1 | · | · | · | ? | – | ·
O=C(C[C@@H]1C[C@H]2c3cc(NC(=O)C4CCC4)ccc3O[C@H]2[C@@H](CO)O1)NCc1ccc(-c2ccccc2)cc1 | · | · | · | 32µM | – | ·
